Measurements taken from ChEMBL document CHEMBL5375956, “Discovery of Pyrazolo[1,5-a]pyrimidine Derivative as a Novel and Selective ALKBH5 Inhibitor for the Treatment of AML” (J Med Chem, 2023).

The chains behind the UniProt entries cited, without tags or fusion partners. Where a name states a change or a piece, a line headed by the entry shows the natural chain unless it says otherwise.
UniProt Q6P6C2: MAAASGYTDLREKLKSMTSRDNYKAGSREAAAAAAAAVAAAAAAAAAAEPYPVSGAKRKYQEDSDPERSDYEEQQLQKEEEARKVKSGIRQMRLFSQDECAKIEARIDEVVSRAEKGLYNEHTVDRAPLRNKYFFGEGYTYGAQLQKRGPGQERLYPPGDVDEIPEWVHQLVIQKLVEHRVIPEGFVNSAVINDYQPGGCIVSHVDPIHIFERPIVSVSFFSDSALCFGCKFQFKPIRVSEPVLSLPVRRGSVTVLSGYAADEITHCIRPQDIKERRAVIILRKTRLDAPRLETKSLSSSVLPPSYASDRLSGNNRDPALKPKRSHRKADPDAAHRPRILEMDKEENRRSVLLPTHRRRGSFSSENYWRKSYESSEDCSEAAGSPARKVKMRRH

Tests used:
RNA demethylase ALKBH5 [1] = biological target: T1, RNA demethylase ALKBH5 (Homo sapiens, UniProt Q6P6C2); experiment: Binding affinity to biotinylated ALKBH5 (66 to 292 residues)(unknown origin) expressed in Escherichia coli BL21(DE3) assessed as association constant (Kon) by BLI assay
RNA demethylase ALKBH5 [2] = biological target: T1, RNA demethylase ALKBH5; experiment: Binding affinity to biotinylated ALKBH5 (66 to 292 residues)(unknown origin) expressed in Escherichia coli BL21(DE3) assessed as dissociation constant (Kdis) by BLI assay

With O=C(OCc1ccc(C(F)(F)F)cc1)c1ccc(-c2cc3ncc(C(=O)c4c(O)ccc([N+](=O)[O-])c4O)cn3n2)cc1 the K (RNA demethylase ALKBH5 [1]) was 1.88 10^3/Ms and the K (RNA demethylase ALKBH5 [2]) was 1.25 10^-2/s.
